Values of other authors as cited in publication PMC11449996 (Clinical Pharmacokinetics, 2024).

Test system: Staphylococcus aureus isolates
Details: neutropenic murine thigh infection model; cited from earlier work

## CN[C@H]1C(=O)N[C@@H]2Cc3ccc(cc3)Oc3cc4cc(c3O[C@@H]3O[C@H](C(=O)O)[C@@H](O)[C@H](O)[C@H]3NC(=O)CCCCCCCCC(C)C)Oc3ccc(cc3Cl)[C@@H](O)[C@@H]3NC(=O)[C@H](NC(=O)[C@@H]4NC(=O)[C@@H](NC2=O)c2cc(cc(O)c2Cl)Oc2cc1ccc2O)c1ccc(O)c(c1)-c1c(O[C@H]2O[C@H](CO)[C@@H](O)[C@H](O)[C@@H]2O)cc(O)cc1[C@@H](C(=O)NCCCN(C)C)NC3=O [dalbavancin, Dalbavancin]
  fAUC24/MIC ratio associated with a 2-log kill: > 111.1
